Measurements taken from patent CN116723860A (NOVARTIS AG, dated 2023).

Key:
重组人IL-1β = molecular target: T1, 重组人IL-1β (human, UniProt P01584 117-269); test: solution equilibrium titration (SET), single target binding assay, mean KD
T1 construct: also called huIL-1β; IL-1b

重组人IL-18 = molecular target: T2, 重组人IL-18 (human, UniProt Q14116 37-193); test: SET, simultaneous target binding assays A and B
T2 construct: also called huIL-18; BTP 25829

Kd (重组人IL-1β): 2.6 pM
binding result (重组人IL-18): binds
B1: bbmAb1 (bispecific antibody, human IgG1, kappa, lambda, L234A L235A)
heavy 1: not shown
light 1: not shown
heavy 2: not shown
light 2: EIVLTQSPDFQSVTPKEKVTITCRASQSIGSSLHWYQQKPDQSPKLLIKYASQSFSGVPSRFSGSGSGTDFTLTINSLEAEDAAAYYCHQSSSLPFTFGPGTKVDIKRTVAAPSVFIFPPSDEQLKSGTASVVCLLNNFYPREAKVQWKVDNALQSGNSQESVTEQDSKDSTYSLSSTLTLSKADYEKHKVYACEVTHQGLSSPVTKSFNRGEC
